{
  "sequences": {"note": "By UniProt entry, the sequences of proteins in these tests, tags left out.", "UniProt Q96P20, whole entry, looked up": "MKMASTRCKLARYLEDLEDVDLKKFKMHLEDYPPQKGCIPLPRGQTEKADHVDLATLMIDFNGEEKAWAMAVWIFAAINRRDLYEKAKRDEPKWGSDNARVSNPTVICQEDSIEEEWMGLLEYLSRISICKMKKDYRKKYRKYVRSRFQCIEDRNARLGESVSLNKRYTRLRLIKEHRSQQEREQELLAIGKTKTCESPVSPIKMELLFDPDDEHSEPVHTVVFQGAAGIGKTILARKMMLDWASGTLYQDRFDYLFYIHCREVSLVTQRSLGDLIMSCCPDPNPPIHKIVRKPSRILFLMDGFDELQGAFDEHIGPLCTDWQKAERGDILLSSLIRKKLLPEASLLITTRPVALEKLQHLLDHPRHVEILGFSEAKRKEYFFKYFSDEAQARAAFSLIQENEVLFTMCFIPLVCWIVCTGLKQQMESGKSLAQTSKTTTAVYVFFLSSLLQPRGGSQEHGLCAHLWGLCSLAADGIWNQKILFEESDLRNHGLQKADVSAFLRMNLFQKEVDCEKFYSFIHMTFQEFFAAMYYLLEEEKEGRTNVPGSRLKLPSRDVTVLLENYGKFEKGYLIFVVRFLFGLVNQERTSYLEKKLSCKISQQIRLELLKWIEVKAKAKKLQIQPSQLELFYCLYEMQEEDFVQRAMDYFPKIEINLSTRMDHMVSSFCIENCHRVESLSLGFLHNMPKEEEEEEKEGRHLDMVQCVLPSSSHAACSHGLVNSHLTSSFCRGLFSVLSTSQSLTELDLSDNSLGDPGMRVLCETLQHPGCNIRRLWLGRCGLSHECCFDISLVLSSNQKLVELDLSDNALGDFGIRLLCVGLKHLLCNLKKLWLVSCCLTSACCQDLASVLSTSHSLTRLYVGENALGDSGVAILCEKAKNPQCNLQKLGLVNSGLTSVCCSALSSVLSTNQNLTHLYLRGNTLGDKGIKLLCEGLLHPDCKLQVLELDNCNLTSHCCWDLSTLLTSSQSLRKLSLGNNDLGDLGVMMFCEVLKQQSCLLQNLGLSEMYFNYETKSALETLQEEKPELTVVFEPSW"},
  "source": "ChEMBL document CHEMBL4602705",
  "about": "“Discovery of N-Cyano-sulfoximineurea Derivatives as Potent and Orally Bioavailable NLRP3 Inflammasome Inhibitors” (ACS Med Chem Lett, 2020)",
  "target": "NACHT, LRR and PYD domains-containing protein 3 (Homo sapiens, UniProt Q96P20)",
  "details": "thp-1",
  "data": [
    {"molecule": "O=C(Nc1c2c(cc3c1CCC3)CCC2)NP(=O)(O)c1ccccc1", "values": [
      {"measurement": "IC50", "value": "> 1000", "unit": "nM"}
    ]}
  ]
}
